What all share (type): in vitro ADME
Data set [1] is described as follows: Stability test in simulated gastric fluid (SGF). The conditions noted are these: 24 hours.
Data set [2] in a line: Stability test in simulated intestinal fluid (SIF).
Another data set deals with Caco-2 cells. As to the kind of experiment: Caco-2 bi-directional permeability test.

On to `CC(C)C[C@@H](C(=O)Nc1ccn(C[C@@H](O)COC(=O)c2cccnc2)n1)N1CC(Oc2ccccc2Cl)=CC1=O` [Compound A, (R)-3-(3-((S)-2-(4-(2-chlorophenoxy)-2-oxo-2,5-dihydro-1H-pyrrol-1-yl)-4-methylpentanamido)-1H-pyrazol-1-yl)-2-hydroxypropyl nicotinate], for which the “Stability in SGF (in words)” value in data set [1] is “stable in SGF for 24 hours”. The “Stability in SIF (in words)” value in data set [2] is reported as “extensively degraded in SIF”. Moreover, in the data set with Caco-2 cells, the “Efflux transporter substrate (in words)” value is listed as “likely to be the substrate for efflux transporters”, the “Permeability from A side to B side (in words)” value is “low” and the “Permeability from B side to A side (in words)” value was “high”.

Values taken from patent publication US20260285835A1, “SOLID FORM OF PYRROLIDONE DERIVATIVE AS GLUCOKINASE ACTIVATOR” (priority 2023, published 2026).
